The entries are a selection whose mix differs from that of the whole data set. Active and inactive are the calls of the source.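 Rule for the calls: active = compounds whose normalised, plate-corrected inhibition of enzyme fluorescence in the single-dose primary screen is 50% or more; inactive = the rest.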

The chains behind the UniProt entries cited, without tags or fusion partners.
UniProt P49327, whole entry: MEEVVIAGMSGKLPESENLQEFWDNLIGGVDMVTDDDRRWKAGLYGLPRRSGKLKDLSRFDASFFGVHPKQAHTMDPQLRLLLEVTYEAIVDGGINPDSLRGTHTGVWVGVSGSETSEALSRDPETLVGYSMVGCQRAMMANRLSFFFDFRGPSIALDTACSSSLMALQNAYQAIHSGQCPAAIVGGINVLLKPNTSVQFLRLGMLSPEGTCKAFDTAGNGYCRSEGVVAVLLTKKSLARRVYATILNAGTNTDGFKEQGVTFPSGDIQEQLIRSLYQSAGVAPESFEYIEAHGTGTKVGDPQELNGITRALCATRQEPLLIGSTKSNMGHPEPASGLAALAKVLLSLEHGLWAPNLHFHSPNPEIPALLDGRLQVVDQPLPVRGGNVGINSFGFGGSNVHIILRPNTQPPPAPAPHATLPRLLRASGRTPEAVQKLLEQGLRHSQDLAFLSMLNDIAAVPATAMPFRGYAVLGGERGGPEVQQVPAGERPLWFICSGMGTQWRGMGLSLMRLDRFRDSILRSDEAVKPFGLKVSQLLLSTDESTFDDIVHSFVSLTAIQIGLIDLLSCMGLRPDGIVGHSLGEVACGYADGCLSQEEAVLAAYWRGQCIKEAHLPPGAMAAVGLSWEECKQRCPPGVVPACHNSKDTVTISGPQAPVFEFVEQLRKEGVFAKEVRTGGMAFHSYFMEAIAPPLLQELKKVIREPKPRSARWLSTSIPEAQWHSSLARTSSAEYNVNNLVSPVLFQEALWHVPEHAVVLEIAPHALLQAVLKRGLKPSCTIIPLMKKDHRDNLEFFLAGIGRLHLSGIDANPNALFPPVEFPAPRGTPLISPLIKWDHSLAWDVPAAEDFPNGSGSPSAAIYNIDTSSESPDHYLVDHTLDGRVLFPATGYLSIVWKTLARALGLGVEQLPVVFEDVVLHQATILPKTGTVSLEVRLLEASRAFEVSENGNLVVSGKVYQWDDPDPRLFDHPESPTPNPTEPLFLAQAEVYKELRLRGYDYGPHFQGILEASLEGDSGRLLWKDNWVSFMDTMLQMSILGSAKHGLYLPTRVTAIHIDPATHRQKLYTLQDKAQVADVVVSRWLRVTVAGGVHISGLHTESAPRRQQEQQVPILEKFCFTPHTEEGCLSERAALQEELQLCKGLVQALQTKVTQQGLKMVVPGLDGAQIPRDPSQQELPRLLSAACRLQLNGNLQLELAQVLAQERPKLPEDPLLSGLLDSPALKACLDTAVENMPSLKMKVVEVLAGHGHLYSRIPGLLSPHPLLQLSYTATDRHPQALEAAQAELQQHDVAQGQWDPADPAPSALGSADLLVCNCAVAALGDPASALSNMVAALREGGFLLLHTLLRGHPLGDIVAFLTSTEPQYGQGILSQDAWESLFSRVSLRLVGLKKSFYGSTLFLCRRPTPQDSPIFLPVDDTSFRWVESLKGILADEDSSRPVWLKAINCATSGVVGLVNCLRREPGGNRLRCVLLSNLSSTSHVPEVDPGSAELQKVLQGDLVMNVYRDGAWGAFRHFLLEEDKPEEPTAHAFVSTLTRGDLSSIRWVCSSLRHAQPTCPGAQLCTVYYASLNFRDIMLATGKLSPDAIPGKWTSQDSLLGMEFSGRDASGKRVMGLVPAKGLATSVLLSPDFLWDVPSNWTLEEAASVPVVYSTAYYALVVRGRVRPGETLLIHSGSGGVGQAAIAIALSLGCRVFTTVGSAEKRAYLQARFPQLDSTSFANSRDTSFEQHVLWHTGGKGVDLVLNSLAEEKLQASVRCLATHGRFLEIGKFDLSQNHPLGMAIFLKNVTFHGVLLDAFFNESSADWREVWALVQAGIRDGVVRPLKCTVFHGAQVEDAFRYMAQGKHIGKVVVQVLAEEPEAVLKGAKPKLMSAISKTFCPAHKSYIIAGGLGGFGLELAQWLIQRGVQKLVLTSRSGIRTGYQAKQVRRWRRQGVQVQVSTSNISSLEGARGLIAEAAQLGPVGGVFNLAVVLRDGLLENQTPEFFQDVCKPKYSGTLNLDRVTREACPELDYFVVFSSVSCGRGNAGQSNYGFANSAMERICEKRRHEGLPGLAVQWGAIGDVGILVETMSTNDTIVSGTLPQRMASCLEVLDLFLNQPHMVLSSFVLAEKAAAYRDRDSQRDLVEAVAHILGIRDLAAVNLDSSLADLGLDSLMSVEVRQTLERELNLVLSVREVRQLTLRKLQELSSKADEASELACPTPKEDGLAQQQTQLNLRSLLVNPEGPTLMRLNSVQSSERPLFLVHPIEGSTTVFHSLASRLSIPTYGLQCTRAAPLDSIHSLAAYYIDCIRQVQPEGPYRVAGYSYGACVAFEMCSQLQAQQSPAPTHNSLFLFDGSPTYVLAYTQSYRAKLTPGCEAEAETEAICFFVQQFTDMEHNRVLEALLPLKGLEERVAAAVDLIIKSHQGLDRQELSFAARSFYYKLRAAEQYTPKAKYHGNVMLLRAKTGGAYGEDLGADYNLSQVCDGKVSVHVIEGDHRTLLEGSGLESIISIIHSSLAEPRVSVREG

The assay addresses Fatty acid synthase (Homo sapiens) (UniProt P49327). Kind of assay: FAS thioesterase domain inhibitors, primary screen, biochemical, fluorescence intensity, uHTS (AID 602261).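 Note: 0% = DMSO with enzyme and 100% = substrate without enzyme.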 To be noted: recombinant FAS-TE, OMFH fluorogenic substrate, fluorescence endpoint; at 15 µM; stronger effect = higher value.
The inhibition is the drop in the measured response relative to a control, in per cent. Regarding `CCC(=O)N(c1ccccc1)C1(COC)CCN(CCc2cccs2)CC1`, the inhibition is inactive: -2.8%.
As to `CCC(=O)N(c1ccccc1)C1(COC)CCN(CCn2nnn(CC)c2=O)CC1`, the inhibition was inactive: -2.5%.

For the origin of these results see PubChem BioAssay AID602261 (Sanford-Burnham Center for Chemical Genomics, 2012).
